{
  "source": "patent US20160223554A1",
  "about": "“METHODS FOR DIAGNOSIS, PROGNOSIS AND METHODS OF TREATMENT” (priority 2011, published 2016)",
  "key": {"[1]": {"tested_on": "AML blasts", "assay": "SCNP phospho-flow signaling nodes in AML PBMC (Example 2, Study No. 1)", "type": "cell-based, human", "conditions": "for Mean Value of CRs: CR patients; for Mean Value of CRs / Mean Value of NRs: Study No. 1; for Mean Value of NRs: NR patients", "method": "Frozen cells are thawed in a 37° C. water bath and gently resuspended in the vial and transferred to the 15 mL conical tube. The 15 mL tube is centrifuged at 930 RPM (200×g) for 8 minutes at room temperature. The supernatant is aspirated and the pellet is gently resuspended in 1 mL media A. The cell suspension is filtered through a 70 um cell strainer into a new 15 mL tube. The cell strainer is rinsed with 1 mL media A and another 12 ml of media A into the 15 mL tube. The cells are mixed into an even suspension. A 20 μL aliquot is immediately removed into a 96-well plate containing 180 μL PBS+4% FBS+CD45 Alexa 700+PI to determine cell count and viability post spin. After the determination, the 15 mL tubes are centrifuged at 930 RPM (200×g) for 8 minutes at room temperature. The supernatant is aspirated and the cell pellet is gently resuspended in 4 mL PBS+4 μL Amine Aqua and incubated for 15 min in a 37° C. incubator. 10 mL RPMI+1% FBS is added to the cell suspension and the tube is inverted to mix the cells. The 15 mL tubes are centrifuged at 930 RPM (200×g) for 8 minutes at room temperature. The cells are resuspended in Media A at the desired cell concentration (1.25×10^6/mL). For samples with low numbers of cells (<18.5×10^6), the cells are resuspended in up to 15 mL media. For samples with high numbers of cells (>18.5×10^6), the volume is raised to 10 mL with media A and the desired volume is transferred to a new 15 mL tube, and the cell concentration is adjusted to 1.25×10^6 cells/ml. 1.6 mL of the above cell suspension (concentration at 1.25×10^6 cells/ml) is transferred into wells of a multi-well plate. From this plate, 80 ul is dispensed into each well of a subsequent plate. The plates are covered with a lid (Nunc) and placed in a 37° C. incubator for 2 hours to rest.\nA concentration for each stimulant that is five folds more (5×) than the final concentration is prepared using Media A as diluent. 5× stimuli are arrayed into wells of a standard 96 well v-bottom plate that correspond to the wells on the plate with cells to be stimulated.\nAdding the stimulant: The cell plate(s) are taken out of the incubator and placed in a 37° C. water bath next to the pipette apparatus. The cell plate is taken from the water bath and gently swirled to resuspend any settled cells. With pipettor, the stimulant is dispensed into the cell plate and vortexed at “7” for 5 seconds. The deep well plate is put back into the water bath.\nAdding Fixative: 200 μl of the fixative solution (final concentration at 1.6%) is dispensed into wells and then mixed on the titer plate shaker on high for 5 seconds. The plate is covered with foil sealer and incubated in a 37° C. water bath for 10 minutes. The plate is spun for 6 minutes at 2000 rpm at room temperature. The cells are aspirated using a 96 well plate aspirator (VP Scientific). The plate is vortexed to resuspend cell pellets in the residual volume. The pellet is ensured to be dispersed before the Methanol step (see cell permeabilization) or clumping will occur.\nCell Permeabilization: Permeability agent, for example methanol, is added slowly and while the plate is vortexing. To do this, the cell plate is placed on titer plate shaker and made sure it is secure. The plate is set to shake using the highest setting. A pipetter is used to add 0.6 mls of 100% methanol to the plate wells. The plate(s) are put on ice until this step has been completed for all plates. Plates are covered with a foil seal using the plate roller to achieve a tight fit. At this stage the plates can be stored at −80° C.\nCells are thawed if frozen. Cells are pelleted at 2000 rpm 5 minutes. Supernatant is aspirated with vacuum aspirator. Plate is vortexed on a “plate vortex” for 5-10 seconds. Cells are washed with 1 mL FACS buffer. Repeat the spin, aspirate and vortex steps as above. 50 μL of FACS/stain buffer with the desired, previously optimized, antibody cocktail is added to two rows of cells at a time and agitate the plate. […]"}, "[2]": {"tested_on": "AML blasts", "assay": "SCNP signaling and apoptosis nodes in AML BMMC (Example 4, Study No. 2)", "type": "cell-based, human"}, "[3]": {"conditions": "Fold metric, Study No. 1, CRp patient included in NR group"}, "[4]": {"conditions": "Total Phospho metric, Study No. 1, CRp patient included in NR group"}, "[5]": {"conditions": "read-out p-CREB, metric TotalPhospho"}, "[6]": {"conditions": "read-out p-Stat3, metric TotalPhospho"}, "[7]": {"conditions": "Fold metric, all patients, Study No. 2"}, "[8]": {"conditions": "Study No.2, patients with De Novo AML"}},
  "data": [
    {"molecule": "CCCCCCCCCCCCCC(=O)O[C@@H]1[C@@H](C)[C@@]2(O)[C@@H](C=C(CO)C[C@]3(O)C(=O)C(C)=C[C@@H]23)[C@@H]2C(C)(C)[C@]12OC(C)=O", "note": "[PMA, reference compound]", "values": [
      {"measurement": "Mean Value of CRs, p-Erk", "setting": "[1]; [3]", "result": 1.46}
    ]},
    {"molecule": "IL-3 (protein, UniProt P08700 20-152, looked up) Interleukin-3: APMTQTTPLKTSWVNCSNMIDEIITHLKQPPLPLLDFNNLNGEDQDILMENNLRRPNLEAFNRAVKSLQNASAIESILKNLLPCLPLATAAPTRHPIHIKDGDWNEFRRKLTFYLKTLENAQAQQTTLSLAIF", "values": [
      {"measurement": "Mean Value of CRs, p-Stat3", "setting": "[1]; [3]", "result": 0.15},
      {"measurement": "Mean Value of NRs, p-Stat3", "setting": "[1]; [3]", "result": "−0.04"},
      {"measurement": "Mean Value of CRs, p-CREB", "setting": "[1]; [4]", "result": 1.51},
      {"measurement": "Mean Value of NRs, p-CREB", "setting": "[1]; [4]", "result": 2.58},
      {"measurement": "Mean Value of CRs", "setting": "[1]; [5]", "result": 1.64},
      {"measurement": "Mean Value of NRs", "setting": "[1]; [5]", "result": 2.57},
      {"measurement": "Mean Value of CRs", "setting": "[1]; read-out p-Stat1, metric Fold", "result": 0.05},
      {"measurement": "Mean Value of NRs", "setting": "[1]; read-out p-Stat1, metric Fold", "result": "−0.01"},
      {"measurement": "Mean Value of CRs", "setting": "[1]; read-out p-Stat3, metric Fold", "result": 0.13},
      {"measurement": "Mean Value of NRs", "setting": "[1]; read-out p-Stat3, metric Fold", "result": "−0.05"},
      {"measurement": "Mean Value of CRs", "setting": "[1]; [6]", "result": 1.05},
      {"measurement": "Mean Value of NRs", "setting": "[1]; [6]", "result": 1.29},
      {"measurement": "Mean Value of CRs, p-Stat5", "setting": "[2]; [7]", "result": 1.99},
      {"measurement": "Mean Value of NRs, p-Stat5", "setting": "[2]; [7]", "result": 0.44},
      {"measurement": "Mean Value of CRs, p-Stat1 TotalPhospho", "setting": "[2]; [8]", "result": 1.03},
      {"measurement": "Mean Value of CRs, p-Stat3 TotalPhospho", "setting": "[2]; [8]", "result": 1.46},
      {"measurement": "Mean Value of CRs, p-Stat5 Fold", "setting": "[2]; [8]", "result": 1.87},
      {"measurement": "Mean Value of NRs, p-Stat1 TotalPhospho", "setting": "[2]; [8]", "result": 1.71},
      {"measurement": "Mean Value of NRs, p-Stat3 TotalPhospho", "setting": "[2]; [8]", "result": 2.40},
      {"measurement": "Mean Value of NRs, p-Stat5 Fold", "setting": "[2]; [8]", "result": 0.39}
    ]}
  ]
}
